## Permeability data for macrocyclic peptides

Source: CycPeptMPDB (Li et al. 2023), which took these values from Kelly et al. 2021, doi:10.1021/jacs.0c06115.

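Lipid, pH, incubation time, direction and concentration are not recorded in the data file. The list need not hold all peptides of the study. Entries at the database's floor value (log10 P of -10) are not listed.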

PAMPA is the parallel artificial membrane permeability assay, which has no cells and reads passive diffusion. P is given in units of 10^-6 cm/s (from log10 values with two decimals); larger means faster passage.

SMILES | PAMPA (10^-6 cm/s)
CC(=O)N1CCC[C@H]1C(=O)N(C)[C@@H](CC(C)C)C(=O)N[C@@H]1C(=O)N(C)[C@H](CC(C)C)C(=O)N[C@H](CC(C)C)C(=O)N[C@H](CC(C)C)C(=O)N[C@H](C)C(=O)N[C@H](CC(C)C)C(=O)N2CCC[C@@H]2C(=O)O[C@@H]1C | 0.03
CC(=O)N1CCC[C@H]1C(=O)N[C@@H]1C(=O)N[C@H](CC(C)C)C(=O)N[C@@H](CC(C)C)C(=O)N(C)[C@H](CC(C)C)C(=O)N[C@@H](CC(C)C)C(=O)N(C)[C@@H](C)C(=O)N[C@@H](CC(C)C)C(=O)N2CCC[C@@H]2C(=O)O[C@@H]1C | 4.2
CC(=O)N1CCC[C@H]1C(=O)N(C)[C@@H](CC(C)C)C(=O)N[C@@H]1C(=O)N(C)[C@@H](CC(C)C)C(=O)N[C@@H](CC(C)C)C(=O)N[C@@H](CC(C)C)C(=O)N[C@@H](C)C(=O)N[C@H](CC(C)C)C(=O)N2CCC[C@H]2C(=O)O[C@@H]1C | 0.05
CC(=O)N1CCC[C@H]1C(=O)N(C)[C@H](CC(C)C)C(=O)N[C@@H]1C(=O)N(C)[C@@H](CC(C)C)C(=O)N(C)[C@@H](CC(C)C)C(=O)N(C)[C@H](CC(C)C)C(=O)N(C)[C@H](C)C(=O)N[C@@H](CC(C)C)C(=O)N2CCC[C@@H]2C(=O)O[C@@H]1C | 6.8
CC(=O)N1CCC[C@H]1C(=O)N[C@@H]1C(=O)N[C@H](CC(C)C)C(=O)N[C@H](CC(C)C)C(=O)N[C@H](CC(C)C)C(=O)N(C)[C@@H](CC(C)C)C(=O)N[C@H](C)C(=O)N[C@@H](CC(C)C)C(=O)N2CCC[C@@H]2C(=O)O[C@@H]1C | 0.69
CC(=O)N1CCC[C@H]1C(=O)N(C)[C@@H](CC(C)C)C(=O)N[C@@H]1C(=O)N[C@H](CC(C)C)C(=O)N(C)[C@H](CC(C)C)C(=O)N(C)[C@@H](CC(C)C)C(=O)N(C)[C@@H](C)C(=O)N[C@H](CC(C)C)C(=O)N2CCC[C@H]2C(=O)O[C@@H]1C | 5
CC(=O)N1CCC[C@H]1C(=O)N(C)[C@@H](CC(C)C)C(=O)N[C@@H]1C(=O)N[C@H](CC(C)C)C(=O)N[C@@H](CC(C)C)C(=O)N[C@H](CC(C)C)C(=O)N(C)[C@H](C)C(=O)N[C@H](CC(C)C)C(=O)N2CCC[C@@H]2C(=O)O[C@@H]1C | 0.069
CC(=O)N1CCC[C@H]1C(=O)N(C)[C@H](CC(C)C)C(=O)N[C@@H]1C(=O)N[C@H](CC(C)C)C(=O)N[C@H](CC(C)C)C(=O)N[C@H](CC(C)C)C(=O)N[C@@H](C)C(=O)N[C@@H](CC(C)C)C(=O)N2CCC[C@H]2C(=O)O[C@@H]1C | 0.24
CC(=O)N1CCC[C@H]1C(=O)N[C@@H]1C(=O)N[C@H](CC(C)C)C(=O)N(C)[C@@H](CC(C)C)C(=O)N[C@H](CC(C)C)C(=O)N(C)[C@H](CC(C)C)C(=O)N(C)[C@H](C)C(=O)N[C@@H](CC(C)C)C(=O)N2CCC[C@@H]2C(=O)O[C@@H]1C | 6
CC(=O)N1CCC[C@H]1C(=O)N(C)[C@H](CC(C)C)C(=O)N[C@@H]1C(=O)N[C@H](CC(C)C)C(=O)N(C)[C@H](CC(C)C)C(=O)N[C@H](CC(C)C)C(=O)N(C)[C@@H](C)C(=O)N[C@@H](CC(C)C)C(=O)N2CCC[C@@H]2C(=O)O[C@@H]1C | 4.1
CC(=O)N1CCC[C@@H]1C(=O)N(C)[C@H](CC(C)C)C(=O)N[C@@H]1C(=O)N(C)[C@@H](CC(C)C)C(=O)N(C)[C@H](CC(C)C)C(=O)N(C)[C@@H](CC(C)C)C(=O)N(C)[C@@H](C)C(=O)N[C@H](CC(C)C)C(=O)N2CCC[C@@H]2C(=O)O[C@@H]1C | 6
CC(=O)N1CCC[C@H]1C(=O)N(C)[C@@H](CC(C)C)C(=O)N[C@@H]1C(=O)N(C)[C@@H](CC(C)C)C(=O)N(C)[C@@H](CC(C)C)C(=O)N(C)[C@H](CC(C)C)C(=O)N(C)[C@@H](C)C(=O)N[C@H](CC(C)C)C(=O)N2CCC[C@H]2C(=O)O[C@@H]1C | 0.36
CC(=O)N1CCC[C@@H]1C(=O)N(C)[C@H](CC(C)C)C(=O)N[C@@H]1C(=O)N[C@H](CC(C)C)C(=O)N[C@@H](CC(C)C)C(=O)N[C@@H](CC(C)C)C(=O)N(C)[C@@H](C)C(=O)N[C@@H](CC(C)C)C(=O)N2CCC[C@@H]2C(=O)O[C@@H]1C | 0.89
CC(=O)N[C@@H]1C(=O)N2CCC[C@H]2C(=O)N(C)[C@H](CC(C)C)C(=O)N[C@H](CC(C)C)C(=O)N[C@@H](CC(C)C)C(=O)N[C@H](CC(C)C)C(=O)N(C)[C@H](C)C(=O)N[C@@H](CC(C)C)C(=O)N2CCC[C@@H]2C(=O)O[C@@H]1C | 0.23
CC(=O)N1CCC[C@@H]1C(=O)N(C)[C@H](CC(C)C)C(=O)N[C@@H]1C(=O)N[C@H](CC(C)C)C(=O)N[C@H](CC(C)C)C(=O)N(C)[C@@H](CC(C)C)C(=O)N(C)[C@@H](C)C(=O)N[C@H](CC(C)C)C(=O)N2CCC[C@@H]2C(=O)O[C@@H]1C | 0.54

The last 2 entries again:

SMILES | PAMPA (10^-6 cm/s)
CC(=O)N[C@@H]1C(=O)N2CCC[C@H]2C(=O)N(C)[C@H](CC(C)C)C(=O)N[C@H](CC(C)C)C(=O)N[C@@H](CC(C)C)C(=O)N[C@H](CC(C)C)C(=O)N(C)[C@H](C)C(=O)N[C@@H](CC(C)C)C(=O)N2CCC[C@@H]2C(=O)O[C@@H]1C | 0.23
CC(=O)N1CCC[C@@H]1C(=O)N(C)[C@H](CC(C)C)C(=O)N[C@@H]1C(=O)N[C@H](CC(C)C)C(=O)N[C@H](CC(C)C)C(=O)N(C)[C@@H](CC(C)C)C(=O)N(C)[C@@H](C)C(=O)N[C@H](CC(C)C)C(=O)N2CCC[C@@H]2C(=O)O[C@@H]1C | 0.54